Molecular target: Muscarinic acetylcholine receptor M3 (Homo sapiens, UniProt P20309)
Test: Muscarinic 3 Receptor Binding Assay

Amino acid sequences for entries named in this document (tags omitted).
UniProt P20309, whole entry, looked up: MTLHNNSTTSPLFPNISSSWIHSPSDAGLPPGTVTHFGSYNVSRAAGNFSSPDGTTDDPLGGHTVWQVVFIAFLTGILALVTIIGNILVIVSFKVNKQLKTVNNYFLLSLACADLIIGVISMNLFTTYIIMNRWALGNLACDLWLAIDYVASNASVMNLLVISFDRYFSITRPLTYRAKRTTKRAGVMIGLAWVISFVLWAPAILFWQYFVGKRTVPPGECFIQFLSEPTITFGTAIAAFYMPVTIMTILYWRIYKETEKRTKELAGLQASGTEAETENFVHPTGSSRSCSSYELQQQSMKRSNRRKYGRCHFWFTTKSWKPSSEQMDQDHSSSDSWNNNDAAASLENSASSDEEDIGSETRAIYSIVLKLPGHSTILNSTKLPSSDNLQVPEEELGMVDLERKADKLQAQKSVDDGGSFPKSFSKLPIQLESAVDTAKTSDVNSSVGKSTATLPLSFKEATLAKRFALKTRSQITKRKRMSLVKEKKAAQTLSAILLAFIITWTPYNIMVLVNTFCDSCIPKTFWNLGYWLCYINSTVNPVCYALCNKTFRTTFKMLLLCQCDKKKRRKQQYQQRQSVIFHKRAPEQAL

CN1CCCN(C(=O)C(O)(c2ccccc2)C2CCCCC2)CC1 (stereo unspecified)
IC50: 60 nM

Source: BindingDB's records for US10155733
